Measured values: ChEMBL document CHEMBL5661980, “Discovery of OSI-906: a selective and orally efficacious dual inhibitor of the IGF-1 receptor and insulin receptor” (Future Med Chem, 2009)

Tests used:
[1] = Microsomal stability in rat liver microsomes assessed as extraction ratio in presence of NADPH for 0 to 40 mins by LC-MS/MS analysis; type: ADME, Microsome; conditions: time 0-40 min
[2] = Microsomal stability in dog liver microsomes assessed as extraction ratio in presence of NADPH for 0 to 40 mins by LC-MS/MS analysis; type: ADME, Canis lupus familiaris, Microsome; conditions: time 0-40 min
[3] = Inhibition of ABL (unknown origin) in presence of ATP Km treated at 2 hrs followed by IGF1 ligand addition for 15 mins by ELISA analysis; design: species or system Homo sapiens
[4] = Inhibition of FGFR1/2 (unknown origin) in presence of ATP Km treated at 2 hrs followed by IGF1 ligand addition for 15 mins by ELISA analysis; design: species or system Homo sapiens
[5] = Inhibition of PKA (unknown origin) in presence of ATP Km treated at 2 hrs followed by IGF1 ligand addition for 15 mins by ELISA analysis; design: species or system Homo sapiens
[6] = Inhibition of p70S6K (unknown origin) in presence of ATP Km treated at 2 hrs followed by IGF1 ligand addition for 15 mins by ELISA analysis; design: species or system Homo sapiens

ERH [1]: 0.41 | ERH [2]: 0.49 | IC50 [3]: > 10 µM | IC50 [4]: > 10 µM | IC50 [5]: > 10 µM | IC50 [6]: > 10 µM
Structure (SMILES): C[C@]1(O)C[C@@H](c2nc(-c3ccc4ccc(-c5ccccc5)nc4c3)c3c(N)nccn32)C1 [LINSITINIB]
